In paper doi:10.1101/472670v4 (biorxiv, 2019) one finds IC50 data, which are given here for four compounds.

Protein sequences, listed by entry. Tags and fused reporters are not part of them.
UniProt P18031, whole entry, looked up: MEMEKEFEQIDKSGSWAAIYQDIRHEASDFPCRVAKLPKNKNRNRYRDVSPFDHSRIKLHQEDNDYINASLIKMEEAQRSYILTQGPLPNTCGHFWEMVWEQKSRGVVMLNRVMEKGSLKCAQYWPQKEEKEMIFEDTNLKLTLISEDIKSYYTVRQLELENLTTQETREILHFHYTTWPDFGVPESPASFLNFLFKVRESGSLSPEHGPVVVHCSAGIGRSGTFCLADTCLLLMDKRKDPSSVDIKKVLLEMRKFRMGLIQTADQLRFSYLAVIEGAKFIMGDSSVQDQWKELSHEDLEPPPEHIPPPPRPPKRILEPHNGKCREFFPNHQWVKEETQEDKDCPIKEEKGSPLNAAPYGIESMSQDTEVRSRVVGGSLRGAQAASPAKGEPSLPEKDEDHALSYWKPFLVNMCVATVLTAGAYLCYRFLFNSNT

pIC50: −log10 of the molar value.

The assay concerns the target PTP1B (human recombinant, kit BML-AK822) (Homo sapiens, UniProt P18031). In words: colorimetric malachite green. The assay is classed as biochemical. The following applies: IR5 phosphopeptide substrate; 30 min; 1% DMSO.
As to `COc1ccc(OC)c(N(C(=O)Cc2ccccc2)c2nc(-c3ccc(C)cc3)cs2)c1`, the pIC50 was 5.11.

As for `COc1ccc(-c2csc(N(C(=O)Cc3ccccc3)c3cc(OC)ccc3OC)n2)cc1`, the pIC50 is 5.20.

As for `COc1ccc(-c2csc(N(C(=O)c3ccc(Cl)cc3)c3cc(OC)ccc3OC)n2)cc1`, the pIC50 was 5.12.

In the case of `COc1ccc(-c2csc(N(C(=O)CCc3ccccc3)c3cc(OC)ccc3OC)n2)cc1`, the negative-log IC50 (pIC50) was 5.13.
